US11279719B2, “Substituted bicyclic pyrimidine-based compounds and compositions and uses thereof” (priority 2017, dated 2022)
pEC50, pIC50: −log10 of the molar value.

By UniProt entry, the sequences of proteins in these tests, tags left out. Where a name states a change or a piece, a line headed by the entry shows the natural chain unless it says otherwise.
UniProt P14324: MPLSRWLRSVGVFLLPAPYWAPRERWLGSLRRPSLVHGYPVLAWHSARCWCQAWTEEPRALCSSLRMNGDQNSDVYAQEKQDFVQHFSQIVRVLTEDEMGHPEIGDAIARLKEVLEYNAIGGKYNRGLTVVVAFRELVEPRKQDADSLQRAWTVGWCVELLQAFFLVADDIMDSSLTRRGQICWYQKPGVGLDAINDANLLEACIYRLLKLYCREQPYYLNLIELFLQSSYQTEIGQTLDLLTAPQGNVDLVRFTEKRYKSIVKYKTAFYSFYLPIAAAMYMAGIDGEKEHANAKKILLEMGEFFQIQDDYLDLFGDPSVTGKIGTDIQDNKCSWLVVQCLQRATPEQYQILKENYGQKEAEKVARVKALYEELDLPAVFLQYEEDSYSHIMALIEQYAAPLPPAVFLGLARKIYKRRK

Assays:
[1] = tested on: RPMI-8226; experiment: MM cell viability assay (MTS proliferation); format: cell-based; conditions: Homo sapiens, 72 hours, average of n ≥ 8 determinations, read-out: MM cells EC50, RPMI-8226
[2] = biological target: hFPPS (Homo sapiens (Human), UniProt P14324); experiment: biochemical

O=C(Nc1cccc(-c2cc3c(NC(P(=O)(O)O)P(=O)(O)O)ncnc3s2)c1)c1ccccc1 [Compound C-11, reference compound]
pEC50 [1]: < 5.00 | pIC50 [2]: < 5.00
